Reference: PMC7686152

target: 10% rhodamine-labeled F-actin (chicken | rabbit) (UniProt P68139); test: in vitro force reconstitution assay, TIRF microscopy

Row | patch half-life [s] | Substance
1 | 42.7 | C-terminally Halo-tagged full-length HIC5 (from UniProt O43294 1-461) (natural protein)
2 | 48.3 | C-terminally Halo-tagged full-length FHL3 (from UniProt Q13643 1-280) (natural protein)
3 | 44.3 | C-terminally Halo-tagged full-length zyxin (from UniProt Q15942 1-572) (natural protein)
